Experimental data taken from patent US5559113A, “Imidazole compounds and their therapeutic applications” (Institut National de la Sante et de la Recherche Medicale, priority 1992, dated 1996).
pKi: −log10 of the molar value.

Protein sequences, listed by entry. Tags and fused reporters are not part of them. Lines headed by an entry give the natural chain unless they say otherwise; changes in a name come on top.
UniProt Q9QYN8: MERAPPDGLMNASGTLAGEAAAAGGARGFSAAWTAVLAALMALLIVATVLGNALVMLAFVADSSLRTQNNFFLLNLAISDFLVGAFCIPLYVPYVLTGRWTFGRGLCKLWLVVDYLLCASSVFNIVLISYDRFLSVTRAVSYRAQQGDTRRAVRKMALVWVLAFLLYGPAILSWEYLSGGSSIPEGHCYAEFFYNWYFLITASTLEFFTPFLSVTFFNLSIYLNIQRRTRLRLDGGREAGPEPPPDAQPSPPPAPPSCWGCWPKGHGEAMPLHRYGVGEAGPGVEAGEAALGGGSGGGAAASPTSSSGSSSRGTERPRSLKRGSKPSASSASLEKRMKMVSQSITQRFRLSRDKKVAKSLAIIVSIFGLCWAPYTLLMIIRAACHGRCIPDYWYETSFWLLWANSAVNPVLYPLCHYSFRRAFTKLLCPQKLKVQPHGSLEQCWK

Biological target: T1, H3 receptors of the brain of the rat (Rattus norvegicus, UniProt Q9QYN8)
T1 construct: This method requires rat cerebral cortex sections; from tissue; host or cells: rat cerebral cortex sections
Assay: Antagonism of the inhibition by exogenous histamine of release in rat cerebral cortex sections (central H3 receptors)
Format: cell-based
Details: read-out: Apparent dissociation constant (Ki) as antagonist of histamine on the H3 receptors of the brain of the rat, exogenous histamine 1 μM, Ki calculated from IC50 according to Cheng and Prusoff
Source text: This method requires rat cerebral cortex sections and has made possible the pharmacological characterization of the H3 receptors (Nature, 1987, 327, 117-123).

## O=C(Nc1cccc([N+](=O)[O-])c1)OCCCc1c[nH]cn1 [Example 69, 3-(1H-Imidazol-4-yl)propyl N-(3-nitrophenyl)carbamate]
  pKi: 7.66
